# Measured values reported in US20250375420A1 (ZYLORION HEALTH INC., priority 2022, published 2025).
# Sequences of proteins named here, by UniProt entry; tags and fusion partners are left off.
# UniProt P28223, whole entry: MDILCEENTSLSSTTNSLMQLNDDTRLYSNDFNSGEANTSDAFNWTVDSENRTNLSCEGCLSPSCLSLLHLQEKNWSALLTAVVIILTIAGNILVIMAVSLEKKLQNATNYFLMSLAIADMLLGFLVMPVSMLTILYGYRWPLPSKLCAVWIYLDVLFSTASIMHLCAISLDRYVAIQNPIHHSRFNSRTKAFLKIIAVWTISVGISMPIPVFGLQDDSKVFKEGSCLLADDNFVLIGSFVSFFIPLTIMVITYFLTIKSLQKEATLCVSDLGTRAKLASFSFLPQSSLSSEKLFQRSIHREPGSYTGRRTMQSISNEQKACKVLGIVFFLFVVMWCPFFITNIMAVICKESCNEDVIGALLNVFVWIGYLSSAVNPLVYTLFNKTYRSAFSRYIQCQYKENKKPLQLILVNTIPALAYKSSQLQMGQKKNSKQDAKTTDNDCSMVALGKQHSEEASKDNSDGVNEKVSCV
# Where two headings read alike, the source gives them in different places.
# What was measured:
# [1] = molecular target: T1, h5HT2a (Homo sapiens, UniProt P28223); details: Ca2+ release, CHO-K1 h5HT2a, 0.1 nM-10 μM, 1 min
# [2] = molecular target: T1, h5HT2a; details: βarrestin2 recruitment, CHO-K1 h5HT2a, 0.1 nM-10 μM, 2 h, AUC
smiles,measurement,setting,value
CNCCc1c[nH]c2cccc(O)c12 [Norpsilocin],EC50,[1],72 nM
same,pEC50 ± S.E.M.,[1],7.1 ± 0.80
same,EC50,[2],2.4 nM
same,pEC50 ± S.E.M.,[2],8.6 ± 1.7
